Membrane permeability of cyclic peptides

Collected by the curators of CycPeptMPDB (Li et al. 2023) from Kelly et al. 2021, doi:10.1021/jacs.0c06115.

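Lipid, pH, incubation time, direction and concentration are not recorded in the data file. Other peptides of the study may be missing here. Peptides that the database sets to -10, its floor, are left out.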

PAMPA measures passive passage through an artificial lipid membrane.
Permeability is in 10^-6 cm/s, converted from the database's log10 values; higher is more permeable.

For CC(=O)N1CCC[C@@H]1C(=O)N(C)[C@H](CC(C)C)C(=O)N[C@@H]1C(=O)N[C@@H](CC(C)C)C(=O)N[C@@H](CC(C)C)C(=O)N(C)[C@@H](CC(C)C)C(=O)N[C@@H](C)C(=O)N[C@H](CC(C)C)C(=O)N2CCC[C@H]2C(=O)O[C@@H]1C the data give PAMPA 0.4 × 10^-6 cm/s. CC(=O)N1CCC[C@H]1C(=O)N(C)[C@@H](CC(C)C)C(=O)N[C@@H]1C(=O)N(C)[C@@H](CC(C)C)C(=O)N(C)[C@H](CC(C)C)C(=O)N(C)[C@@H](CC(C)C)C(=O)N(C)[C@H](C)C(=O)N[C@H](CC(C)C)C(=O)N2CCC[C@@H]2C(=O)O[C@@H]1C is reported with PAMPA 4.4 × 10^-6 cm/s. CC(=O)N1CCC[C@@H]1C(=O)N(C)[C@@H](CC(C)C)C(=O)N[C@@H]1C(=O)N[C@H](CC(C)C)C(=O)N(C)[C@@H](CC(C)C)C(=O)N(C)[C@H](CC(C)C)C(=O)N(C)[C@@H](C)C(=O)N[C@@H](CC(C)C)C(=O)N2CCC[C@H]2C(=O)O[C@@H]1C has PAMPA 4.3 × 10^-6 cm/s. CC(=O)N1CCC[C@H]1C(=O)N(C)[C@H](CC(C)C)C(=O)N[C@@H]1C(=O)N[C@@H](CC(C)C)C(=O)N[C@@H](CC(C)C)C(=O)N[C@@H](CC(C)C)C(=O)N[C@@H](C)C(=O)N[C@H](CC(C)C)C(=O)N2CCC[C@H]2C(=O)O[C@@H]1C has PAMPA 0.32 × 10^-6 cm/s.

CC(=O)N1CCC[C@@H]1C(=O)N(C)[C@@H](CC(C)C)C(=O)N[C@@H]1C(=O)N(C)[C@@H](CC(C)C)C(=O)N(C)[C@H](CC(C)C)C(=O)N(C)[C@H](CC(C)C)C(=O)N(C)[C@@H](C)C(=O)N[C@H](CC(C)C)C(=O)N2CCC[C@H]2C(=O)O[C@@H]1C is reported with PAMPA 5 × 10^-6 cm/s. Listed for CC(=O)N1CCC[C@H]1C(=O)N[C@@H]1C(=O)N(C)[C@H](CC(C)C)C(=O)N(C)[C@@H](CC(C)C)C(=O)N(C)[C@H](CC(C)C)C(=O)N(C)[C@@H](CC(C)C)C(=O)N(C)[C@@H](C)C(=O)N[C@@H](CC(C)C)C(=O)N2CCC[C@@H]2C(=O)O[C@@H]1C: PAMPA 15 × 10^-6 cm/s. CC(=O)N1CCC[C@@H]1C(=O)N(C)[C@@H](CC(C)C)C(=O)N[C@@H]1C(=O)N(C)[C@H](CC(C)C)C(=O)N[C@@H](CC(C)C)C(=O)N(C)[C@@H](CC(C)C)C(=O)N(C)[C@@H](C)C(=O)N[C@@H](CC(C)C)C(=O)N2CCC[C@H]2C(=O)O[C@@H]1C has PAMPA 4.5 × 10^-6 cm/s. CC(=O)N1CCC[C@H]1C(=O)N(C)[C@H](CC(C)C)C(=O)N[C@@H]1C(=O)N(C)[C@@H](CC(C)C)C(=O)N[C@@H](CC(C)C)C(=O)N(C)[C@@H](CC(C)C)C(=O)N(C)[C@H](C)C(=O)N[C@H](CC(C)C)C(=O)N2CCC[C@H]2C(=O)O[C@@H]1C is reported with PAMPA 1.9 × 10^-6 cm/s.

CC(=O)N1CCC[C@H]1C(=O)N(C)[C@@H](CC(C)C)C(=O)N[C@@H]1C(=O)N[C@@H](CC(C)C)C(=O)N(C)[C@H](CC(C)C)C(=O)N[C@@H](CC(C)C)C(=O)N(C)[C@H](C)C(=O)N[C@@H](CC(C)C)C(=O)N2CCC[C@H]2C(=O)O[C@@H]1C has PAMPA 0.79 × 10^-6 cm/s. CC(=O)N1CCC[C@@H]1C(=O)N(C)[C@@H](CC(C)C)C(=O)N[C@@H]1C(=O)N[C@H](CC(C)C)C(=O)N(C)[C@H](CC(C)C)C(=O)N(C)[C@H](CC(C)C)C(=O)N[C@H](C)C(=O)N[C@H](CC(C)C)C(=O)N2CCC[C@H]2C(=O)O[C@@H]1C is reported with PAMPA 2.1 × 10^-6 cm/s. For CC(=O)N1CCC[C@@H]1C(=O)N(C)[C@@H](CC(C)C)C(=O)N[C@@H]1C(=O)N[C@H](CC(C)C)C(=O)N(C)[C@H](CC(C)C)C(=O)N(C)[C@@H](CC(C)C)C(=O)N(C)[C@@H](C)C(=O)N[C@H](CC(C)C)C(=O)N2CCC[C@H]2C(=O)O[C@@H]1C the data give PAMPA 3.8 × 10^-6 cm/s. CC(=O)N1CCC[C@H]1C(=O)N(C)[C@H](CC(C)C)C(=O)N[C@@H]1C(=O)N(C)[C@@H](CC(C)C)C(=O)N[C@@H](CC(C)C)C(=O)N(C)[C@@H](CC(C)C)C(=O)N(C)[C@@H](C)C(=O)N[C@H](CC(C)C)C(=O)N2CCC[C@@H]2C(=O)O[C@@H]1C has PAMPA 3 × 10^-6 cm/s.

The entry for CC(=O)N1CCC[C@@H]1C(=O)N(C)[C@@H](CC(C)C)C(=O)N[C@@H]1C(=O)N[C@H](CC(C)C)C(=O)N[C@H](CC(C)C)C(=O)N[C@@H](CC(C)C)C(=O)N(C)[C@@H](C)C(=O)N[C@H](CC(C)C)C(=O)N2CCC[C@H]2C(=O)O[C@@H]1C lists PAMPA 1.5 × 10^-6 cm/s. The entry for CC(=O)N1CCC[C@H]1C(=O)N(C)[C@H](CC(C)C)C(=O)N[C@@H]1C(=O)N[C@@H](CC(C)C)C(=O)N[C@H](CC(C)C)C(=O)N(C)[C@H](CC(C)C)C(=O)N[C@@H](C)C(=O)N[C@@H](CC(C)C)C(=O)N2CCC[C@H]2C(=O)O[C@@H]1C lists PAMPA 0.15 × 10^-6 cm/s. Listed for CC(=O)N1CCC[C@H]1C(=O)N(C)[C@H](CC(C)C)C(=O)N[C@@H]1C(=O)N[C@H](CC(C)C)C(=O)N[C@H](CC(C)C)C(=O)N[C@H](CC(C)C)C(=O)N(C)[C@H](C)C(=O)N[C@H](CC(C)C)C(=O)N2CCC[C@@H]2C(=O)O[C@@H]1C: PAMPA 0.41 × 10^-6 cm/s. CC(=O)N1CCC[C@@H]1C(=O)N(C)[C@H](CC(C)C)C(=O)N[C@@H]1C(=O)N[C@H](CC(C)C)C(=O)N[C@H](CC(C)C)C(=O)N[C@H](CC(C)C)C(=O)N(C)[C@@H](C)C(=O)N[C@H](CC(C)C)C(=O)N2CCC[C@@H]2C(=O)O[C@@H]1C has PAMPA 0.46 × 10^-6 cm/s.

The entry for CC(=O)N1CCC[C@@H]1C(=O)N(C)[C@@H](CC(C)C)C(=O)N[C@@H]1C(=O)N[C@@H](CC(C)C)C(=O)N(C)[C@H](CC(C)C)C(=O)N(C)[C@@H](CC(C)C)C(=O)N(C)[C@@H](C)C(=O)N[C@H](CC(C)C)C(=O)N2CCC[C@H]2C(=O)O[C@@H]1C lists PAMPA 2.4 × 10^-6 cm/s. Listed for CC(=O)N1CCC[C@H]1C(=O)N(C)[C@@H](CC(C)C)C(=O)N[C@@H]1C(=O)N[C@H](CC(C)C)C(=O)N(C)[C@H](CC(C)C)C(=O)N(C)[C@@H](CC(C)C)C(=O)N(C)[C@@H](C)C(=O)N[C@H](CC(C)C)C(=O)N2CCC[C@H]2C(=O)O[C@@H]1C: PAMPA 5 × 10^-6 cm/s. CC(=O)N1CCC[C@H]1C(=O)N(C)[C@H](CC(C)C)C(=O)N[C@@H]1C(=O)N[C@@H](CC(C)C)C(=O)N[C@@H](CC(C)C)C(=O)N(C)[C@@H](CC(C)C)C(=O)N(C)[C@@H](C)C(=O)N[C@H](CC(C)C)C(=O)N2CCC[C@@H]2C(=O)O[C@@H]1C is reported with PAMPA 0.44 × 10^-6 cm/s. CC(=O)N1CCC[C@H]1C(=O)N(C)[C@@H](CC(C)C)C(=O)N[C@@H]1C(=O)N[C@@H](CC(C)C)C(=O)N(C)[C@@H](CC(C)C)C(=O)N(C)[C@@H](CC(C)C)C(=O)N(C)[C@@H](C)C(=O)N[C@@H](CC(C)C)C(=O)N2CCC[C@H]2C(=O)O[C@@H]1C has PAMPA 0.66 × 10^-6 cm/s.

CC(=O)N1CCC[C@H]1C(=O)N(C)[C@@H](CC(C)C)C(=O)N[C@@H]1C(=O)N(C)[C@H](CC(C)C)C(=O)N[C@@H](CC(C)C)C(=O)N(C)[C@@H](CC(C)C)C(=O)N(C)[C@H](C)C(=O)N[C@H](CC(C)C)C(=O)N2CCC[C@H]2C(=O)O[C@@H]1C is reported with PAMPA 1.1 × 10^-6 cm/s. CC(=O)N1CCC[C@H]1C(=O)N(C)[C@@H](CC(C)C)C(=O)N[C@@H]1C(=O)N(C)[C@@H](CC(C)C)C(=O)N(C)[C@@H](CC(C)C)C(=O)N[C@H](CC(C)C)C(=O)N(C)[C@@H](C)C(=O)N[C@H](CC(C)C)C(=O)N2CCC[C@H]2C(=O)O[C@@H]1C has PAMPA 0.11 × 10^-6 cm/s. CC(=O)N1CCC[C@H]1C(=O)N(C)[C@H](CC(C)C)C(=O)N[C@@H]1C(=O)N(C)[C@H](CC(C)C)C(=O)N(C)[C@@H](CC(C)C)C(=O)N(C)[C@H](CC(C)C)C(=O)N[C@@H](C)C(=O)N[C@H](CC(C)C)C(=O)N2CCC[C@H]2C(=O)O[C@@H]1C is reported with PAMPA 5.6 × 10^-6 cm/s. For CC(=O)N1CCC[C@@H]1C(=O)N(C)[C@H](CC(C)C)C(=O)N[C@@H]1C(=O)N(C)[C@@H](CC(C)C)C(=O)N(C)[C@H](CC(C)C)C(=O)N(C)[C@@H](CC(C)C)C(=O)N(C)[C@@H](C)C(=O)N[C@@H](CC(C)C)C(=O)N2CCC[C@H]2C(=O)O[C@@H]1C the data give PAMPA 2 × 10^-6 cm/s.

The first 2 entries again:

SMILES	PAMPA (10^-6 cm/s)
CC(=O)N1CCC[C@@H]1C(=O)N(C)[C@H](CC(C)C)C(=O)N[C@@H]1C(=O)N[C@@H](CC(C)C)C(=O)N[C@@H](CC(C)C)C(=O)N(C)[C@@H](CC(C)C)C(=O)N[C@@H](C)C(=O)N[C@H](CC(C)C)C(=O)N2CCC[C@H]2C(=O)O[C@@H]1C	0.4
CC(=O)N1CCC[C@H]1C(=O)N(C)[C@@H](CC(C)C)C(=O)N[C@@H]1C(=O)N(C)[C@@H](CC(C)C)C(=O)N(C)[C@H](CC(C)C)C(=O)N(C)[C@@H](CC(C)C)C(=O)N(C)[C@H](C)C(=O)N[C@H](CC(C)C)C(=O)N2CCC[C@@H]2C(=O)O[C@@H]1C	4.4